{
  "sequences": {"note": "By UniProt entry, the sequences of proteins in these tests, tags left out. Residues count along the entry.", "UniProt P10721, 26-976 V654A": "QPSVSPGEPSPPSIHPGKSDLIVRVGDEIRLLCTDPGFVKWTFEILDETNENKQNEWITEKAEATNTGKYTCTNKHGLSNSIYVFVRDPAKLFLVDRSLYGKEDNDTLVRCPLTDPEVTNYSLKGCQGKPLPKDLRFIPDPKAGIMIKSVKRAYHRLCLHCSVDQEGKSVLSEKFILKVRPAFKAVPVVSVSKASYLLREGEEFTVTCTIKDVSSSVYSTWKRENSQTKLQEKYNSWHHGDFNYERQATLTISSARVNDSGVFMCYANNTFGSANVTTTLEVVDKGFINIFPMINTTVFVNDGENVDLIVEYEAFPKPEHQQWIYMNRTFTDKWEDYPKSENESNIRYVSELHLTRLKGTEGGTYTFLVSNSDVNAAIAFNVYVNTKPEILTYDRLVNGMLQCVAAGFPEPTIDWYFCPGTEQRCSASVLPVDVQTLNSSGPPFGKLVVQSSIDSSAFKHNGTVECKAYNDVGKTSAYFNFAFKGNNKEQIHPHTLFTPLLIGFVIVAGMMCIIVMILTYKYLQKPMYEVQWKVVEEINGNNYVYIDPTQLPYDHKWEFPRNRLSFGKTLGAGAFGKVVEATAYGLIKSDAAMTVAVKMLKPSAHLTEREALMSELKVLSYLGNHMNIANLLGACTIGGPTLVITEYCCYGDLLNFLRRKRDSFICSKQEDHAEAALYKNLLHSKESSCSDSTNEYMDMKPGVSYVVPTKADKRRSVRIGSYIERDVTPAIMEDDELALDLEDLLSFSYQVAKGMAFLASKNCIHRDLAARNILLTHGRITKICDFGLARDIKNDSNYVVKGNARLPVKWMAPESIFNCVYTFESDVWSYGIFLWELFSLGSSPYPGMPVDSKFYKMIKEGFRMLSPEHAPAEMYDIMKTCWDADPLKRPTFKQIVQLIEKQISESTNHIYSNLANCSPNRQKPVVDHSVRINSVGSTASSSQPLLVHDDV"},
  "source": "paper PMC3961306",
  "about": "“Comparison of the Cancer Gene Targeting and Biochemical Selectivities of All Targeted Kinase Inhibitors Approved for Clinical Use” (PLoS ONE, 2014)",
  "key": {"[1]": {"test_system": "forty-four human cancer cell lines", "assay": "Cell proliferation assay (ATPlite, 72 hours) in the 44 cell line Oncolines panel", "details": "A-427, read-out: cell panel IC50, A-427"}, "[2]": {"biological_target": "panel of more than 300 wild-type and mutant kinases (313 kinase panel) (Homo sapiens, UniProt P10721, V654A)", "assay": "Kinase profiling in a biochemical assay panel (mobility shift assays and ELISA), %-inhibition at 1 μM; selectivity entropy", "details": "kinase KIT(V654A); compound at 1 μM"}, "[3]": {"biological_target": "T1, panel of more than 300 wild-type and mutant kinases (313 kinase panel) (Homo sapiens, UniProt P45985)", "T1 sequence (P45985 1-399)": "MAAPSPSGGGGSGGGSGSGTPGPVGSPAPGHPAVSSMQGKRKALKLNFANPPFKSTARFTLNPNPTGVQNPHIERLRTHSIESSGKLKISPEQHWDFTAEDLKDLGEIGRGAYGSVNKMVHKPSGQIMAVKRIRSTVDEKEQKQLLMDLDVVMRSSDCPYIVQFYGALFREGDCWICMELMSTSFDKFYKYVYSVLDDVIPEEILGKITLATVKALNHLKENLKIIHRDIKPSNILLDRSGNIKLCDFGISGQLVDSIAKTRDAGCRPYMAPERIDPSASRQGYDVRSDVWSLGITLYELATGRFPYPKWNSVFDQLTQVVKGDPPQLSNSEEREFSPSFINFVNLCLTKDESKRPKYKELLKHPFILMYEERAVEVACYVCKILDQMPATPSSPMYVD", "assay": "Kinase profiling in a biochemical assay panel (mobility shift assays and ELISA), %-inhibition at 1 μM; selectivity entropy", "details": "1 µM"}},
  "data": [
    {"compound": "C#Cc1cccc(Nc2ncnc3cc(OCCOC)c(OCCOC)cc23)c1", "note": "[erlotinib]", "values": [
      {"measurement": "IC50", "setting": "[1]", "value": "> 31.6", "unit": "µM"}
    ]},
    {"compound": "CNC(=O)c1cc(Oc2ccc(NC(=O)Nc3ccc(Cl)c(C(F)(F)F)c3)c(F)c2)ccn1", "note": "[regorafenib]", "values": [
      {"measurement": "%-inhibition of KIT(V654A)", "setting": "[2]", "value": 65, "unit": "%"}
    ]},
    {"compound": "CCCS(=O)(=O)Nc1ccc(F)c(C(=O)c2c[nH]c3ncc(-c4ccc(Cl)cc4)cc23)c1F", "note": "[vemurafenib]", "values": [
      {"measurement": "%-inhibition of MAP2K4", "setting": "[3]", "value": 34, "unit": "%"}
    ]}
  ]
}
